# In US20050065348A1, “Pyridin-2-yl-methylamine derivatives for treating opioid dependence” (priority 2001, published 2005):
# Protein sequences, listed by entry. Tags and fused reporters are not part of them.
# UniProt P19327, whole entry: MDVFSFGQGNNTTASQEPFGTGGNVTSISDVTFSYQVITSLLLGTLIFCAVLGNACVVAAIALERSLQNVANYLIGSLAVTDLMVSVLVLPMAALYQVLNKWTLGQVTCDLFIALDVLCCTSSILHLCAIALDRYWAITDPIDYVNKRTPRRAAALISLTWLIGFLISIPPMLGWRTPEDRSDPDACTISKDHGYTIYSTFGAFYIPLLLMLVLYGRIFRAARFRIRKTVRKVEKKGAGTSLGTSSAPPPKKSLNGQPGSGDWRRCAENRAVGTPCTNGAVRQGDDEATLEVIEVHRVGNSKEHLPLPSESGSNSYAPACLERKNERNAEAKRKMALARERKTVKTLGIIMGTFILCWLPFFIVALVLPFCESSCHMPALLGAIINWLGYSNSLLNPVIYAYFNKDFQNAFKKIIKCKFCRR
# Columns and labels:
# [1] = tested on: morphine withdrawal syndrome (hyperalgesia); assay: Effects on morphine dependence: naloxone-precipitated withdrawal hyperalgesia (Randall and Selitto nociceptive thresholds); type: in vivo; conditions: rat; co-treatment morphine 5 mg/rat/day + compound 2.5 mg/rat/day, s.c. osmotic mini-pumps 2 weeks; naloxone 0.63 mg/kg s.c.; SNK p<0.05 vs control
# 5-HT1A receptor = target: T1, 5-HT1A receptor (Rattus norvegicus, UniProt P19327); assay: Affinity for the 5-HT1A receptor (3H-8-OH-DPAT displacement); type: binding; conditions: Tissue: cerebral cortex of rat, average of at least 3 experiments, read-out: pKi site 5-HT1A (converted)
# T1 construct: Tissue: cerebral cortex of rat; from tissue; host or cells: rat cerebral cortex
# Experimental: Measurement of the affinity of compound F and reference products for the 5-HT1A receptor
# Study of the bond with the 5-HT1A receptor was carried out according to a standard method (Naunyn-Schmiedeberg's Arch. Pharmaco. 1991, 343, 106). The inhibition constants (Ki) of the products according to the invention were estimated from displacement experiments using the version 4 RADLIG non-linear regression programme of EBDA (Equilibrium Binding Data Analysis) (Biosoft, Cambridge, UK, Mc Pherson, 1985). The dissociation constants of the radioactive ligands used in the calculations are 0.31 nmole for ^3H-8-OH-DPAT. The values of pKi (−logKi) are provided under the form of average±SEM of at least 3 experiments.
smiles,measurement,setting,value
CC1(C)CC(=O)N(CCCCN2CCN(c3ncccn3)CC2)C(=O)C1 [gepirone],Effect on hyperalgesia / morphine withdrawal syndrome (AUC of nociceptive thresholds),[1],did not have any detectable effect on the hyperalgesia
same,Ki,5-HT1A receptor,67.6 nM
